pIC50: −log10 of the molar value.

Sequences of proteins named here, by UniProt entry; tags and fusion partners are left off. A change or cut given only in a name is not applied to a line headed by its entry.
UniProt Q12809: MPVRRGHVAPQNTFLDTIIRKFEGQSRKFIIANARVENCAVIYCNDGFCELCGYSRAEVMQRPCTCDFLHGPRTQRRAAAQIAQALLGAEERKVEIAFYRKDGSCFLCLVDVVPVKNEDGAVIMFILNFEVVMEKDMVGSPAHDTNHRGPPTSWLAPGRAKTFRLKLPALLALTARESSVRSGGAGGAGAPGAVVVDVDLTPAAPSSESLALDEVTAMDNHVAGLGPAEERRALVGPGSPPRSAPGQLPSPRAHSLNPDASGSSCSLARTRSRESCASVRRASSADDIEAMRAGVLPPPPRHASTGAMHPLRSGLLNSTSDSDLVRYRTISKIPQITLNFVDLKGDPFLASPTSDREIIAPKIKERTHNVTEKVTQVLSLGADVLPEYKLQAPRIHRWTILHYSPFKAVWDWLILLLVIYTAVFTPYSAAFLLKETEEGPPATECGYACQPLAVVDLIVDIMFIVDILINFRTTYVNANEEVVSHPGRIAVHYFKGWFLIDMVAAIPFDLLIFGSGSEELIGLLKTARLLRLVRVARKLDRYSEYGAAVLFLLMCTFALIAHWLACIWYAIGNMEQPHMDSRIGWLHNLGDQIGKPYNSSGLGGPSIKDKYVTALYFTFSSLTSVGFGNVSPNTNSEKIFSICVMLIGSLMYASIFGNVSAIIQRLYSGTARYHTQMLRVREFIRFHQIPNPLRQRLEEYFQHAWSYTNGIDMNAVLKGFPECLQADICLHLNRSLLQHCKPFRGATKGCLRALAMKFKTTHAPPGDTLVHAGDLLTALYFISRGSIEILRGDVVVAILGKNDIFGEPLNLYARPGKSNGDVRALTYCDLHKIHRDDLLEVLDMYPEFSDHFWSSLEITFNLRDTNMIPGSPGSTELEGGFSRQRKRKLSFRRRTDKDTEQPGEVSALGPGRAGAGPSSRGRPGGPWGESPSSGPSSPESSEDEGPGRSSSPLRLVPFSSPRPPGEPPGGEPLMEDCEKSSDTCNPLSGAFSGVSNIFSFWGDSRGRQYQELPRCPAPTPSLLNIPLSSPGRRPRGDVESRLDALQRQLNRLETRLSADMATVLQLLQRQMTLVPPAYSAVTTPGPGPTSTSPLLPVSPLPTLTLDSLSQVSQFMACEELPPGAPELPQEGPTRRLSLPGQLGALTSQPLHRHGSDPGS

This experiment has as its target IKr current (Homo sapiens, UniProt Q12809). Put plainly: In vitro electrophysiology, cultured cells expressing cloned cardiac ion channels. An excerpt:
The effects of Compound (I) on the cardiovascular system were examined in in vitro and in vivo studies.

Broadly, the pIC50 is −log10 of the IC50, conventionally taken in molar units. For the compound `O=C1Cc2cc(CCN3CCN(c4nsc5ccccc45)CC3)c(Cl)cc2N1` [ziprasidone, reference compound], the pIC50 was 6.87.

The values above are taken from patent US10258614B2, “Compositions and methods for treating schizophrenia” (priority 2014, dated 2019).
